From ChEMBL document CHEMBL1132940, “Pharmacophore/receptor models for GABA(A)/BzR subtypes (alpha1beta3gamma2, alpha5beta3gamma2, and alpha6beta3gamma2) via a comprehensive ligand-mapping approach” (J Med Chem, 2000)

The chains behind the UniProt entries cited, without tags or fusion partners. Where a name states a change or a piece, a line headed by the entry shows the natural chain unless it says otherwise.
UniProt P18507: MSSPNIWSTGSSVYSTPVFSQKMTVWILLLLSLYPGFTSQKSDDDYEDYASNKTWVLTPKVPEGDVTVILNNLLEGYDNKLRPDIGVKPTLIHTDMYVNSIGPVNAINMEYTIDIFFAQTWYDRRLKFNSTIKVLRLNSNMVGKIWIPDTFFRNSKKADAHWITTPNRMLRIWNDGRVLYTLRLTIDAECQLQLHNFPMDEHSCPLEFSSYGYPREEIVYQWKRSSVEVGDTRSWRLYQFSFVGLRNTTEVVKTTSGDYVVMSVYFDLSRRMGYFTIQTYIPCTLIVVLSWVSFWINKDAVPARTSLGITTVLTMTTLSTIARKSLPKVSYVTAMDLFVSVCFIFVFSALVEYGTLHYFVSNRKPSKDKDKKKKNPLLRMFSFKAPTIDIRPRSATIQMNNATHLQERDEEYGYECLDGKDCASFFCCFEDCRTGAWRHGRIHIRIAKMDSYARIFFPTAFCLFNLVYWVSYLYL
UniProt P28472: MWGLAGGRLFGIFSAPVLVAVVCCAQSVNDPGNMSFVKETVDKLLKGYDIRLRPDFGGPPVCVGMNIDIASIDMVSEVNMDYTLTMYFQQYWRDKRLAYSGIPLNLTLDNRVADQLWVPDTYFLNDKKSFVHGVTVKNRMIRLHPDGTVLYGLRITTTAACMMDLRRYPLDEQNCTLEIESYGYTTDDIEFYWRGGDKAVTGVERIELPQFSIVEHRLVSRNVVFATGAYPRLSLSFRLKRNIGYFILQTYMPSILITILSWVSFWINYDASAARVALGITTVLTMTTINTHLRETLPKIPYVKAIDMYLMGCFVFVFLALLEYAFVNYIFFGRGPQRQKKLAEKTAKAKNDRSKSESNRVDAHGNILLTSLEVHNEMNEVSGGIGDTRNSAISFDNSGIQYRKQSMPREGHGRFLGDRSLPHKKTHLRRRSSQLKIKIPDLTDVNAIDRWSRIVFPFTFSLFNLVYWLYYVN
UniProt Q16445, whole entry: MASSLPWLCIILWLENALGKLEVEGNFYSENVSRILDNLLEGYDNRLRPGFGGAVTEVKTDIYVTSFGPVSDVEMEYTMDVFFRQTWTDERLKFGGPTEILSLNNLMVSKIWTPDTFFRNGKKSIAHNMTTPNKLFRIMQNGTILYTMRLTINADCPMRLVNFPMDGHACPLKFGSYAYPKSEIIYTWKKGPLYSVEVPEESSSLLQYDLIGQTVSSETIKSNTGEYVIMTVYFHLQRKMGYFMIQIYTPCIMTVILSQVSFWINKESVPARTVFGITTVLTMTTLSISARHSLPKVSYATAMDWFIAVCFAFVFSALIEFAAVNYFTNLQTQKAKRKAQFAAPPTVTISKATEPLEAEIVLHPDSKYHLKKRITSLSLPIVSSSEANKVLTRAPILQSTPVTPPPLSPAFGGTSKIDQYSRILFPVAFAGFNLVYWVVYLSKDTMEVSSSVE

Molecular target: GABA-A receptor; alpha-6/beta-3/gamma-2 (Homo sapiens, UniProt P18507+P28472+Q16445)
Assay: Binding affinity for human recombinant gamma-aminobutyric-acid (GABA) A receptor alpha-6-beta-3-gamma-2
Type: protein-complex assay

`CCOC(=O)c1cc2c(cn1)[nH]c1ccccc12` gave a Ki of 2700 nM.
